Assay results published in patent publication US5030634A, “10-deazaaminopterin: a new arthritis remittive drug” (priority 1990, dated 1991).

Columns and labels:
[1] = system: rheumatoid arthritis patients; details: for Joint Swelling: 58 joints (0-3/joint), values printed on the line 'Grip Strength'; for Joint Pain/Tenderness: 60 joints (0-3/joint)
[2] = compared with methotrexate; cited from earlier work
[3] = V6 (6th visit, week 18), n = 5 10-deazaaminopterin, n = 6 methotrexate

Nc1nc(N)c2nc(CCc3ccc(C(=O)NC(CCC(=O)O)C(=O)O)cc3)cnc2n1 (centres unmarked) [10-deazaaminopterin]
General Activity Level (0-16) ([1]; V0 (baseline), n = 7 per arm): 7.8
Grip Strength L ([1]; V0 (baseline), n = 7 per arm): 123 mm Hg
Grip Strength R ([1]; V0 (baseline), n = 7 per arm): 122 mm Hg
Morning Stiffness ([1]; V0 (baseline), n = 7 per arm): 1.47 h
Pain Level (0-3) ([1]; V0 (baseline), n = 7 per arm): 1.8
Patient Assessment (1-5) ([1]; V0 (baseline), n = 7 per arm): 2.7
Physician Assessment (1-5) ([1]; V0 (baseline), n = 7 per arm): 2.7
Joint Swelling ([1]; V0 (baseline), n = 7 per arm): 21.5
Joint Pain/Tenderness ([1]; V0 (baseline), n = 7 per arm): 30.1
Grip Strength L ([1]; V3 (3rd visit), n = 7 per arm): 136 mm Hg
Grip Strength R ([1]; V3 (3rd visit), n = 7 per arm): 171 mm Hg
Morning Stiffness ([1]; V3 (3rd visit), n = 7 per arm): 0.60 h
Joint Swelling ([1]; V3 (3rd visit), n = 7 per arm): 15.2
Joint Pain/Tenderness ([1]; V3 (3rd visit), n = 7 per arm): 18.5
General Activity Level (0-16) [1, 3]: 2.2
Grip Strength L [1, 3]: 188 mm Hg
Grip Strength R [1, 3]: 184 mm Hg
Morning Stiffness [1, 3]: 0.05 h
Pain Level (0-3) [1, 3]: 0.8
Patient Assessment (1-5) [1, 3]: 2.3
Physician Assessment (1-5) [1, 3]: 2.3
Joint Swelling [1, 3]: 11.4
Joint Pain/Tenderness [1, 3]: 10.8
Anti-proliferative activity versus methotrexate (in words) [2]: more powerful anti-proliferative agent than methotrexate

CN(Cc1cnc2nc(N)nc(N)c2n1)c1ccc(C(=O)N[C@@H](CCC(=O)O)C(=O)O)cc1 [methotrexate, reference compound]
General Activity Level (0-16) ([1]; V0 (baseline), n = 7 per arm): 6.8
Grip Strength L ([1]; V0 (baseline), n = 7 per arm): 132 mm Hg
Grip Strength R ([1]; V0 (baseline), n = 7 per arm): 140 mm Hg
Morning Stiffness ([1]; V0 (baseline), n = 7 per arm): 0.84 h
Pain Level (0-3) ([1]; V0 (baseline), n = 7 per arm): 2.3
Patient Assessment (1-5) ([1]; V0 (baseline), n = 7 per arm): 2.3
Physician Assessment (1-5) ([1]; V0 (baseline), n = 7 per arm): 2.1
Joint Swelling ([1]; V0 (baseline), n = 7 per arm): 27.8
Joint Pain/Tenderness ([1]; V0 (baseline), n = 7 per arm): 33.2
Grip Strength L ([1]; V3 (3rd visit), n = 7 per arm): 138 mm Hg
Grip Strength R ([1]; V3 (3rd visit), n = 7 per arm): 147 mm Hg
Morning Stiffness ([1]; V3 (3rd visit), n = 7 per arm): 0.32 h
Joint Swelling ([1]; V3 (3rd visit), n = 7 per arm): 23
Joint Pain/Tenderness ([1]; V3 (3rd visit), n = 7 per arm): 17.2
General Activity Level (0-16) [1, 3]: 3.5
Grip Strength L [1, 3]: 145 mm Hg
Grip Strength R [1, 3]: 163 mm Hg
Morning Stiffness [1, 3]: 0.37 h
Pain Level (0-3) [1, 3]: 1
Patient Assessment (1-5) [1, 3]: 2.1
Physician Assessment (1-5) [1, 3]: 2.1
Joint Swelling [1, 3]: 13.8
Joint Pain/Tenderness [1, 3]: 12

Read-outs that look alike come from different tables or passages of the source.
